This is an account of results in patent publication US12161698B2, “Synthetic platelets” (CASE WESTERN RESERVE UNIVERSITY, priority 2011, dated 2024).

The test system of the data set is systemic hemostasis in mice (tail bleeding). Kind of data set: Tail bleeding time after free SK versus PMIN-encapsulated SK. The note with it: 400 IU/mouse, 30 min post-administration, vs normal mice.

As to streptokinase [free SK], the tail bleeding time result was “significant prolongation of tail bleeding time”.
